Test results published in ChEMBL document CHEMBL1124268, “Approaches to protection against nerve agent poisoning. (Naphthylvinyl)pyridine derivatives as potential antidotes” (1988).

By UniProt entry, the sequences of proteins in these tests, tags left out. Where a name states a change or a piece, a line headed by the entry shows the natural chain unless it says otherwise.
UniProt P28329: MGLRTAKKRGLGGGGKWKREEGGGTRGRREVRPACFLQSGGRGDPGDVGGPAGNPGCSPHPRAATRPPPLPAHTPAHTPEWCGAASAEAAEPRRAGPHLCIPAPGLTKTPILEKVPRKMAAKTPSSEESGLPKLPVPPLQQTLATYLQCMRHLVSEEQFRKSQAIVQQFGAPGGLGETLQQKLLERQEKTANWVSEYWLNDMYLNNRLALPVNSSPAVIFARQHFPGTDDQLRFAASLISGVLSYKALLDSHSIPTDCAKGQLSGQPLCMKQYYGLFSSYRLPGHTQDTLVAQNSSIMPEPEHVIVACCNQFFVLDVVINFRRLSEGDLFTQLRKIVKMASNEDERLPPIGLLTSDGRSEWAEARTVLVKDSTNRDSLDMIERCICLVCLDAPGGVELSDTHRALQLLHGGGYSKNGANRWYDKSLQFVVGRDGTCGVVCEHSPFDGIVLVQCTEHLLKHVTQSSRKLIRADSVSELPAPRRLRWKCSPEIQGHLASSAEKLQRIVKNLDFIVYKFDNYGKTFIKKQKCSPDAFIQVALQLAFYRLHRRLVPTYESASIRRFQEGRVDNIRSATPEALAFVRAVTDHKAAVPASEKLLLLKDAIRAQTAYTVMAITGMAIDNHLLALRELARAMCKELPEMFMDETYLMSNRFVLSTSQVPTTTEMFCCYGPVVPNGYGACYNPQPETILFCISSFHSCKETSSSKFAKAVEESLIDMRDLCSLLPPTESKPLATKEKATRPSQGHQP

Biological target: Choline O-acetyltransferase (Homo sapiens, UniProt P28329)
Assay: Inhibition of choline acetyltransferase (CAT) enzyme
Settings: read-out: I50

C[n+]1ccc(/C=C/c2cccc3ccccc23)cc1N
IC50: 5.3 µM

CN1CC=C(/C=C/c2cccc3ccccc23)CC1
IC50: 4.3 µM

OCC[n+]1ccc(/C=C/c2cccc3ccccc23)cc1
IC50: 3 µM

C[n+]1ccc(C#Cc2cccc3ccccc23)cc1
IC50: 1.1 µM

C[n+]1ccc(/C=C/c2cccc3ccccc23)cc1
IC50: 0.3 µM

C[n+]1ccc(/C=C/c2ccc(Cl)c(Cl)c2)cc1
IC50: 4.5 µM

CC(=O)Nc1cc(/C=C/c2cccc3ccccc23)cc[n+]1C
IC50: 3.7 µM

CCCCCC[n+]1ccc(/C=C/c2cccc3ccccc23)cc1
IC50: 4.2 µM

COc1ccc(/C=C/c2cc[n+](CCO)cc2)c2ccccc12
IC50: 90 µM

C[n+]1ccccc1/C=C/c1cccc2ccccc12
IC50: 2.2 µM

C[n+]1ccc(/C=C/c2ccccc2)cc1
IC50: 12 µM
